Measurements: PMC8131325

Experiments:
[1] = biological target: fatty acid binding protein 3 (UniProt P05413)
[2] = biological target: fatty acid binding protein 3 (UniProt P05413); assay: other fluorescence titration; ANS fluorescence (5 μM ANS, emission at 460 nm) of 2 μM FABP3 with increasing concentrations of αSyn or αSynP130-140; 50 mM Tris-HCl pH 7.4

dynamic light scattering: average particle size after a 1200 min incubation of αSyn with FABP3 (6 μm for αSyn alone) [1]: 0.63 μm
stoichiometry N [2]: 1
Substance: α-synuclein (from UniProt P37840 1-140) (natural protein)
